Experimental data taken from article PMC10214524, “A Systematic Approach to the Discovery of Protein–Protein Interaction Stabilizers” (ACS Central Science, 2023).
Several values for one entry are separate records, joined by “and”; a condition that tells them apart may be missing. Equal values may be shown once. Blank lines part the entries; values can stand above or below the compound they belong to.

The chains behind the UniProt entries cited, without tags or fusion partners. Residues count along the entry.
UniProt P31947, 1-231 limits assumed: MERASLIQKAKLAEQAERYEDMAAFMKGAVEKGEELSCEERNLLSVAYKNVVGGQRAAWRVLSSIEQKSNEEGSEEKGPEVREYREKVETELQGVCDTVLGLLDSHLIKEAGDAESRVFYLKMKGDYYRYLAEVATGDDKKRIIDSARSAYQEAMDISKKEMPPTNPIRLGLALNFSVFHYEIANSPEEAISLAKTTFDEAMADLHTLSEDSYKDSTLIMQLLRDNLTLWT

How the values were obtained:
[1] = molecular target: T1, 14-3-3σ/FOXO1 phosphopeptide complex (Homo sapiens, UniProt P31947); assay: Primary disulfide tethering screen (intact-protein LC/MS), FOXO1 peptide; settings: 200 µM fragment, 100 nM 14-3-3σ, 750 nM FOXO1-pp, 250 μM BME, 3 h
[2] = molecular target: T1, 14-3-3σ/FOXO1 phosphopeptide complex; assay: 14-3-3σ protein titration (fluorescence anisotropy) with compound, FOXO1 peptide; settings: 1 mM compound; for Kd: read-out: KD_app, protein titration, 50 μM BME, fluorescein-labeled FOXO1
[3] = molecular target: T1, 14-3-3σ/FOXO1 phosphopeptide complex; assay: Fluorescence anisotropy dose response (FADR), FOXO1 peptide; settings: for EC50: 50 μM BME, FOXO1 peptide
[4] = molecular target: T2, 14-3-3σ/ERα phosphopeptide complex (Homo sapiens, UniProt P31947); assay: Fluorescence anisotropy dose response (FADR), ERα peptide
[5] = molecular target: 14-3-3σ/USP8 phosphopeptide complex (Homo sapiens, UniProt P31947); assay: Fluorescence anisotropy dose response (FADR), USP8 peptide
[6] = molecular target: 14-3-3σ/SOS1 phosphopeptide complex (Homo sapiens, UniProt P31947); assay: Fluorescence anisotropy dose response (FADR), SOS1 peptide
[7] = molecular target: T1, 14-3-3σ/FOXO1 phosphopeptide complex; assay: Mass spectrometry dose response (MSDR), FOXO1 peptide; settings: for DR50: 250 μM BME, FOXO1 peptide present
[8] = molecular target: T3, 14-3-3σ/C-RAF phosphopeptide complex (Homo sapiens, UniProt P31947); assay: Fluorescence anisotropy dose response (FADR), C-RAF peptide; settings: for EC50: 50 μM BME, C-RAF peptide
[9] = molecular target: T3, 14-3-3σ/C-RAF phosphopeptide complex; assay: Mass spectrometry dose response (MSDR), C-RAF peptide; settings: for DR50: 250 μM BME, C-RAF peptide present
[10] = molecular target: T3, 14-3-3σ/C-RAF phosphopeptide complex; assay: Primary disulfide tethering screen (intact-protein LC/MS), C-RAF peptide; settings: 200 µM fragment, 100 nM 14-3-3σ, 18 µM CRAF-pp, 250 μM BME, 3 h
[11] = molecular target: T2, 14-3-3σ/ERα phosphopeptide complex; assay: Mass spectrometry dose response (MSDR), ERα peptide; settings: 250 μM BME, ERα peptide present
[12] = molecular target: T2, 14-3-3σ/ERα phosphopeptide complex; assay: Primary disulfide tethering screen (intact-protein LC/MS), ERα peptide; settings: 200 µM fragment, 100 nM 14-3-3σ, 2 µM ERα-pp, 250 μM BME, 3 h
[13] = molecular target: T3, 14-3-3σ/C-RAF phosphopeptide complex; assay: 14-3-3σ protein titration (fluorescence anisotropy) with compound, C-RAF peptide; settings: 1 mM compound; for fold stab.: KD_DMSO / KD_app, C-RAF peptide

% Tethering [1]: 83.6%
Kd [2]: 0.117 µM
SMILES: CN(C)CCSSCCNC(=O)C1CCN(C(=O)c2ccc3[nH]nnc3c2)CC1

SMILES: CN(C)CCSSCCNC(=O)C1CCCN(C(=O)c2cc(Cl)cc(Cl)c2N)C1 (stereo not drawn)
% Tethering [1]: 68.7%
EC50 [3]: 0.85 µM
stabilization of ERα peptide binding to 14-3-3σ over DMSO control [4]: No increase stabilization
stabilization of USP8 peptide binding to 14-3-3σ over DMSO control [5]: No increase stabilization
stabilization of SOS1 peptide binding to 14-3-3σ over DMSO control [6]: No increase stabilization
fold stab. ([2]; KD_DMSO / KD_app, FOXO1 peptide): 4 fold
Kd [2]: 0.0106 µM
fold better DR50 in the presence of FOXO1 phosphopeptide than apo 14-3-3σ and all other phosphopeptide clients [7]: > 450 fold
DR50 [7]: 2.2 µM
stabilization of C-RAF peptide binding to 14-3-3σ over DMSO control [8]: No increase stabilization

SMILES: CN(C)CCSSCCNC(=O)C1CCN(C(=O)c2cc(Cl)c(O)c(Cl)c2)CC1
% Tethering [1]: 66.6%
EC50 [3]: 2.41 µM
Kd [2]: 0.069 µM
DR50 [7]: 4.78 µM

DR50 [9]: 5.82 µM
EC50 [8]: > 2000 µM
% Tethering [10]: 51.1%
SMILES: CN(C)CCSSCCNC(=O)C1CCCN(C(=O)C(C)(C)Oc2ccc3ccccc3c2)C1 (stereo not drawn)

DR50 [11]: > 2000 µM
DR50 [9]: 5.45 µM
EC50 [8]: 0.58 µM
% Tethering [12]: 37.1%
% Tethering [10]: 63.7%
SMILES: CN(C)CCSSCCNC(=O)C1CCN(C(=O)Cc2ccc(F)cc2)CC1

stabilization of FOXO1 peptide binding to 14-3-3σ over DMSO control [3]: No increased stabilization
stabilization of ERα peptide binding to 14-3-3σ over DMSO control [4]: No increased stabilization
stabilization of USP8 peptide binding to 14-3-3σ over DMSO control [5]: No increased stabilization
stabilization of SOS1 peptide binding to 14-3-3σ over DMSO control [6]: No increased stabilization
fold lower DR50 in the presence of C-RAF peptide compared to apo 14-3-3σ [9]: 230 fold
DR50 [9]: 8.78 µM
EC50 [8]: 1.33 µM
% Tethering [10]: 48.3%
fold stab. [13]: 430 fold and 426 fold
fold stab. ([13]; listed as 918039 (6)): 426 fold
Kd ([13]; read-out: KD_app, protein titration, 50 μM BME, fluorescein-labeled C-RAF): 0.1 µM
SMILES: CN(C)CCSSCCNC(=O)C1CCCN(C(=O)c2cccc(Oc3ccccc3)c2)C1 (stereo not drawn)

% Tethering [1]: 35.4%
EC50 ([4]; 50 μM BME, ERα peptide): > 2000 µM
DR50 [11]: 1900 µM
% Tethering [12]: 40.5%
SMILES: Cc1cc(C)c2ccc(C(=O)NCCSSCCN(C)C)nc2c1O
